# Antibody variant affinities, Ab-14 heavy chain, assay B

Data: MIT Lincoln Laboratory AlphaSeq set, Li et al. 2023, doi:10.1038/s41467-023-39022-2, as distributed in FLAb.

Target peptide (SARS-CoV-2 spike, HR2 region): PDVDLGDISGINAS

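The variants were designed computationally from a first round of random CDR variants and then made and measured. Several design methods are mixed in this list. Affinity was read by AlphaSeq, a pooled yeast mating assay with surface-displayed partners. Mating (16 h, 30 °C) was followed by selection of diploids and sequencing of their barcodes. A regression on co-assayed BCL2-family reference pairs converts the normalised counts of each replicate to an apparent Kd. Each pool was mated in six replicate cultures.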

The variants keep the light chain, the linker and the frameworks of Ab-14 (scFv order VH, a (GGGGS)3 linker, VL).
VH: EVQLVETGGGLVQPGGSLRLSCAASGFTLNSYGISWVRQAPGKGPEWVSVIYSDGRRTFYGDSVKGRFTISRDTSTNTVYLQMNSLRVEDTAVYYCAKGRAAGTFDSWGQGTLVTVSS
VL: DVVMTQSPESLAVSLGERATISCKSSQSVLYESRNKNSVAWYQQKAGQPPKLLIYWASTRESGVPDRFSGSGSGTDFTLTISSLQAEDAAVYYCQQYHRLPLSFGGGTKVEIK

Each variant is given by its three heavy chain CDRs, as the data file delimits them; those of the parent are GFTLNSYGIS, VIYSDGRRTFYGDSVK, GRAAGTFDS. Variants here have more than six changes. Values are apparent Kd, the geometric mean of the replicates that gave a signal; lower means stronger binding. "nd" marks a missing value. The strain was present, yet no cells mated with the target were sequenced in any replicate, which points to weak or no binding. The list is sorted by this average, lowest first, undetected variants last. The range of this assay differs from that of the first round, and the authors advise against merging the two.

The variant GFDLNEYGIS / VIYADGRRTFYDDSVK / GNLAGTFDL showed 26 pM (6 of 6 replicates; controls 0 of 18).
The variant GFDLNEYGIS / VIYADGRRTFYADSVK / GTHAGTFDQ showed 92 pM (6 of 6 replicates; controls 0 of 18).
The variant GFDLNEYGIS / VIYADGKRTFYIDSVK / GTNAGTFDV showed 160 pM (6 of 6 replicates; controls 1 of 18).
The variant GFDLNEYGIS / VIYADGRRKFYADSVK / GNVAGTFDV showed 170 pM (6 of 6 replicates; controls 0 of 18).
The variant GFDLNEYGIS / VIYADGRRTFYDDSVK / GQIAGTFDL showed 220 pM (6 of 6 replicates; controls 0 of 18).
The variant GFDLNEYGIS / VIYADGVRTFYIDSVK / GTNAGTFDV showed 250 pM (6 of 6 replicates; controls 1 of 18).
The variant GFDLNEYGIS / VIYADGRRTFYADSVK / GKIAGTFNQ showed 270 pM (6 of 6 replicates; controls 0 of 18).
The variant FFKLEDFGIS / VIYADGRRTAYVDDFK / GEIAGTFDV showed 290 pM (1 of 6 replicates; controls 0 of 18).
The variant GFNLDEYGIS / VIYADGQRTAYADSVK / GNVAGTFDI showed 300 pM (6 of 6 replicates; controls 0 of 18).
The variant GFDLENYGIS / VIYADGRRTFYSDSVK / GENAGTFDI showed 330 pM (6 of 6 replicates; controls 0 of 18).
The variant GFDLNEYGIS / VIYADGRRTYYADSVK / GQNAGTFDV showed 370 pM (6 of 6 replicates; controls 0 of 18).
The variant GFNLDEYGIS / VIYADGRRTFYSDNVK / GEAAGTFDI showed 380 pM (6 of 6 replicates; controls 0 of 18).
The variant GFDLNEYGIS / VIYADGKRTFYSDKVK / GNVAGTFDV showed 410 pM (6 of 6 replicates; controls 1 of 18).
The variant GFDLNEYGIS / VIYADGSRTAYADSVK / GVNAGTFDV showed 450 pM (6 of 6 replicates; controls 0 of 18).
The variant GFDLDEYGIS / VIYADGMRTFYSDSVK / GENAGTFDV showed 490 pM (6 of 6 replicates; controls 0 of 18).
The variant GFDLNEYGIS / VIYADGKRTAYTDSVK / GGNAGTFDV showed 570 pM (6 of 6 replicates; controls 1 of 18).
The variant GFDLDEYGIS / VIYADGRRTAYADNVK / GEVAGTFDT showed 740 pM (6 of 6 replicates; controls 0 of 18).
The variant GFDLNEYGIS / VIYADGLRTSYIDSVK / GQLAGTFDQ showed 810 pM (6 of 6 replicates; controls 0 of 18).
The variant GFDLNEYGIS / VIYADGRRTAYADSVK / GEAAGTFDN showed 1.0 nM (6 of 6 replicates; controls 0 of 18).
The variant GFDLDEYGIS / VIYADGSRTAYADSVK / GNNAGTFDM showed 1.2 nM (6 of 6 replicates; controls 1 of 18).
The variant GFDLNEYGIS / VIYADGMRTFYTDSVK / GETAGTFIN showed 1.3 nM (6 of 6 replicates; controls 0 of 18).
The variant GFDLNEYGIS / VIYADGMRTSYADSVK / GENAGTFDV showed 1.8 nM (6 of 6 replicates; controls 0 of 18).
The variant GFDLNEYGIS / VIYADGVRKAYADSVK / GNTAGTFDV showed 1.8 nM (6 of 6 replicates; controls 0 of 18).
The variant GFDLNEYGIS / VIYADGRRTFYSDSVK / GNTAGTFDV showed 4.5 nM (5 of 6 replicates; controls 0 of 18).
The variant GFDLESYGIS / VIYADGRRTFYADKVK / GSNAGTFDI showed 7.6 nM (6 of 6 replicates; controls 1 of 18).
The variant GKDLDEYGIS / VIYADGARKAYQNQFK / GGQAGTFVN showed 14 nM (6 of 6 replicates; controls 0 of 18).
The variant GEDLLEYGIS / VIYADGSRVAYTNAVK / GNLAGAFDV showed 47 nM (1 of 6 replicates; controls 0 of 18).
The variant GDNINEYGIS / VIYADGLRKQYSENVK / GYLAGTLDE showed 860 nM (1 of 6 replicates; controls 1 of 18).
The variant GEQLDEYGIS / VIYADGRRQYYANSVK / GDSADVFDL showed 23 µM (1 of 6 replicates; controls 1 of 18).
The variant GFDLEEYGIS / VIYADGVRTAYKNKVK / GQIAGGQFD showed nd (0 of 6 replicates; controls 0 of 18).
The variant GEDLDEYGIS / VIYADGRKQSYSNAVK / GAVGGNFVQ showed nd (0 of 6 replicates; controls 0 of 18).
The variant GFTVADYGIS / VIYSDGRKTFYIDSVK / GRVIGTFDS showed nd (0 of 6 replicates; controls 0 of 18).
The variant GFHLDEYGIS / VIYADGKRSVYTNDVK / GELQIGFVI showed nd (0 of 6 replicates; controls 0 of 18).
The variant GEDLMEYGIS / VIYADGKRFSYIDDVK / GNSTGFLDV showed nd (0 of 6 replicates; controls 0 of 18).
The variant GFNLDEYGIS / VIYADGRRTGYRDKFK / GANNFSVMM showed nd (0 of 6 replicates; controls 0 of 18).
The variant GFDLDEQGIS / VIYADGVRCSYAQSVK / GANSGVIDV showed nd (0 of 6 replicates; controls 2 of 18).
The variant GMDINEYGVS / VIYADGNRKQYSDNVK / GIEGGNFVI showed nd (0 of 6 replicates; controls 0 of 18).
The variant GFDLAEYGVS / VIYADGKRTHYADHVK / GVNLGFFDL showed nd (0 of 6 replicates; controls 0 of 18).

A selection of 4 entries from above:

| CDR-H1 | CDR-H2 | CDR-H3 | apparent Kd | seen in | empty controls |
|---|---|---|---|---|---|
| GFDLESYGIS | VIYADGRRTFYADKVK | GSNAGTFDI | 7.6 nM | 6/6 | 1/18 |
| GFDLNEYGIS | VIYADGRRTAYADSVK | GEAAGTFDN | 1.0 nM | 6/6 | 0/18 |
| GFTVADYGIS | VIYSDGRKTFYIDSVK | GRVIGTFDS | nd | 0/6 | 0/18 |
| GFDLDEQGIS | VIYADGVRCSYAQSVK | GANSGVIDV | nd | 0/6 | 2/18 |

The authors averaged sequences with at least three values out of six and counted those with two or fewer as poor binders. Background: pairings of all heavy chain designs with three empty control strains gave a value in 1% of cases (median 120 nM, 5th percentile 7.0 nM). Values in that range, when seen in few replicates, are hard to tell from nonspecific mating. For each scFv, signals with the empty controls are counted beside the result.